This is a selection: effects in other tests are not listed, and their absence says nothing.

Experimental findings from patent US11584714B2 are described below.

The target in the assay is Thrombin (Homo sapiens (Human), UniProt P00734). The assay is described as follows: Thrombin inhibition. The class given is biochemical.

With `n1nc2c([nH]1)c1nn[nH]c1c1nn[nH]c21`, the “Thrombin Ki (μM)” value is reported as “No Activity”.
